The values below come from US20120100139A1 (APTEVO RESEARCH AND DEVELOPMENT, published 2012).

By UniProt entry, the sequences of proteins in these tests, tags left out. Residues count along the entry.
UniProt P42081, 24-247 limits assumed: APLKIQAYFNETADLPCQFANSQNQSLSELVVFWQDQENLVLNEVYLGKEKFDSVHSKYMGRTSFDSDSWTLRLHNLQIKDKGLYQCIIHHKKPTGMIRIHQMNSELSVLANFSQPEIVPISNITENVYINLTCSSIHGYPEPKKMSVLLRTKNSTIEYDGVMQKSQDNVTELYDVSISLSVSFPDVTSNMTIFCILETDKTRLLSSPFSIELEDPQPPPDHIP

Experiment [1] deals with CD80-mIg (Ancell Catalog #510-020) (UniProt P33681). Nature of the experiment: SPR (BIAcore T100), CD80-mIgG immobilized on CM5; steady-state equilibrium fit.
Experiment [2] has the same target. Briefly: SPR (BIAcore T100), CD80-mIgG immobilized on CM5; bivalent analyte model, first site. On the technique in general: In SPR one partner is held on a chip, and binding of the other changes the refractive index at the surface.
Experiment [3] shares this target. Nature of the experiment: SPR (BIAcore T100), CD80-mIgG immobilized on CM5; bivalent analyte model, second site.
Another experiment concerns the target CD86-mIgG (Ancell, Inc) (UniProt P42081). Briefly: SPR (BIAcore T100), CD86-mIgG immobilized on CM5; steady-state equilibrium fit.

The Kd is the constant that tells how readily two partners part at equilibrium. The low end stands for higher affinity, the high end for lower affinity. The koff is the first-order rate constant of dissociation. Read a low koff as a long-lived complex. What is called kon is the rate constant with which the complex forms. Read a low kon as slow association. In turn, “abatacept (Orencia, Bristol-Myers Squibb) (Fc fusion)” registered a Kd in experiment [1] of 130 nM. In experiment [2], the koff worked out at 0.006 s⁻¹ and the kon worked out at 550000 M⁻¹ s⁻¹. Moreover, in experiment [3], the Second Site ka was 0.00019 s⁻¹ and the Second Site kd amounted to 0.00094 s⁻¹. In the experiment with CD86-mIgG (Ancell, Inc), this substance showed a Kd of 3.2 µM.
